# Target: T1, 5-HT6 receptor (Homo sapiens, UniProt P50406)
# Amino acid sequences for entries named in this document (tags omitted).
# UniProt P50406, whole entry: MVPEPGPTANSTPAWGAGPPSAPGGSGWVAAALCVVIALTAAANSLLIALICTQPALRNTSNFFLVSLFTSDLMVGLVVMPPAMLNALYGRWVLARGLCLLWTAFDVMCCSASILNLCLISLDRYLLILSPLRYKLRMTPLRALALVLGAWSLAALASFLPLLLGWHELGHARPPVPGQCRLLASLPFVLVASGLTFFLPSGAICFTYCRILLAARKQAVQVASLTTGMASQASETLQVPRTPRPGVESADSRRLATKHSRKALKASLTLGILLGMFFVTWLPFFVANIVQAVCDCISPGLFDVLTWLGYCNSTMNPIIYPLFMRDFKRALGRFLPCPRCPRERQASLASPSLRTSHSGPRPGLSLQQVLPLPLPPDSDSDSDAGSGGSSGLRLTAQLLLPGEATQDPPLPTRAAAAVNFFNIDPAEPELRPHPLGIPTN
# T1 construct: expressed in transfected cells; host or cells: HEK 293
# Assay: 5-HT6 receptor binding assay (3H-LSD, filtration format)
# Details: 100 nM; positive control
compound,measurement,value
CSc1ccc2c(c1)C(N1CCN(C)CC1)Cc1ccccc1S2 (stereo not shown) [Methiothepin],Average % inhibition,84.53%

# From patent publication US20090192097A1, “Synergistic Herbal Composition from Bacopa Species for Management of Neurodegenerative Disorders and a Process of Preparation Thereof” (priority 2006, published 2009)
